In patent publication US20230218773A1 (priority 2020, published 2023):

Key:
subcutaneous KPC tumors = assay: Antitumor efficacy in C57BL/6 mice bearing subcutaneous KPC tumors; assay type: in vivo; settings: FIG. 18
Description: Further studies were performed on C57BL/6 mice bearing subcutaneous KPC tumors (i.e. mice with intact immune system having pancreatic tumors harboring main mutations: mutant KRAS and loss of p53 tumor suppressor). Pancreatic tumors in immune-competent mice are immune suppressive and thus a more realistic model of disease. After tumor formation, mice were injected at day 0, 4, 8, and 12 with treatment arms with equivalent amount of drug (except for PBS/saline and mouse ALDC1-H, which had about 2× amount of drug). […] (Gem, 100 mg/kg, (intraperitoneally) IP, Day 0, 4, 8, 12, and 16).

Cathepsin B = molecular target: T1, Cathepsin B (Homo sapiens, UniProt P07858); assay: Drug release of MMAE from albumin-drug conjugates with/without Cathepsin B; assay type: in vitro ADME; settings: buffer pH 5.5, 37° C.; for conjugated MMAE released upon incubation with Cathepsin B: within 40 min
T1 construct: Cathepsin B extracted from human liver (Sigma-Aldrich); purchased Sigma-Aldrich; host or cells: human liver (tissue extract)
Description: Quantification of MMAE by LC-MS: An Agilent 1260 Infinity liquid chromatography system (G1312B) with an Agilent 6530 Q-TOF mass spectrometer was used to detect the drug MMAE. 5 μL of sample was injected into an Eclipse Plus C18 column (50×2.1 mm, 5 μm) followed by a gradient elution at 0.7 mL/min. […] Electrospray ionization source was used in positive mode. To derive standard curves for MMAE, drug standards were spiked into blank matrix along with internal standard. Samples were then prepared for LC-MS analysis. MMAE was monitored at m/z 740 [M+Na]+, 719 [M+H]+, 371 [M+Na+1-1]^2+ and 360 [M+2H]^2±. Deuterated (D8) MMAE as internal standard was monitored at m/z 748 [M+Na]+, 727 [M+H]+, 375 [M+Na+1-1]^2+ and 364 [M+2H]^2±. The peak area of each drug standard was derived by the peak area of internal standard. The peak area ratios were then plotted as a function of standard concentrations and data points were fitted using linear regression (GraphPad). MMAE concentrations in test samples were quantified using the peak area ratio between MMAE and D8-MMAE and calculated using the standard curves.
Cathepsin B extracted from human liver (Sigma-Aldrich) was activated in a buffer containing 30 mM DTT, 15 mM EDTA at pH 5.5 for 15 min at room temperature. The concentration of Cathepsin B in activation buffer is 0.125 μM. Albumin-drug conjugates in 25 mM sodium acetate buffer (pH 5.5) was mixed with Cathepsin B at the volume ratio of 14:1 (v/v). The target molar ratio of Cathepsin B to linker in albumin-drug conjugates was 1:1000 (mol/mol). The reaction mixture was incubated at 37° C. water bath. 10 μL sample aliquots were taken at predetermined time points and immediately quenched by adding E-64 (trans-Epoxysuccinyl-L-leucylamido(4-guanidino)butane protease inhibitor, Sigma-Aldrich) to a final concentration of 0.25 μM. Acetonitrile was added to a final concentration of 95% (v/v). The supernatant was subsequently analyzed by LC-MS to quantify released free MMAE.

[1] = Body weight change at 0.9 mg/kg MMAE equivalent dose; assay type: in vivo, mice; settings: Day 0, 4, 8, 12
Description: FIGS. 15A-15E: Body weight change of mice when dosed with 0.9 mg/kg MMAE equivalent dose. […] Body weights of mice during and after treatments were monitored. (n=5). Data shown as mean±standard deviation. Mice in MMAE group (B) were dosed with 0.9 mg/kg MMAE at Day 0 and 4. On Day 6, mice in MMAE group were euthanized due to significant body weight loss (>20%). Mice in MMAE-MAL group were euthanized on Day 12 due to significant body weight loss. Other groups were euthanized on Day 13.

PANC1 cells = assay: MTT assay, PANC1 cells; assay type: cell-based, human
Description: (§1) Cell lines and culture: Human pancreatic cancer cell line MIA PaCa2 cells and primary umbilical vein endothelial cells (HUVEC) were purchased from American Type Culture Collection (ATCC). Human pancreatic cancer cell line PANC1 cells were kindly provided by Dr. Zhengrong Cui (College of Pharmacy, The University of Texas at Austin). Mouse mT4-2D pancreatic cancer cell line, which is derived from a Kras^+/LSL-G12DTp53^+/LSL-R172HPdx1-Cre transgenic model of pancreatic cancer, was kindly provided by Dr. Kyaw Aung (Livestrong Cancer Institutes, Dell Medical School, The University of Texas at Austin). MIA PaCa2 cells, PANC1, and mT4-2D cells were maintained in Dulbecco's […] with high glucose (Corning). Cell culture medium was supplemented with 10% fetal bovine serum (Gibco) and 100 U/mL penicillin-streptomycin (Gibco). HUVEC cells were maintained according to protocol provided by ATCC. All cells were maintained at 37° C. in a humidified atmosphere with 5% carbon dioxide.
(§2) MTT Assay: Cells were seeded in 96 well plates at a density of 5,000 cells/well. […] After the formazan crystals were completely dissolved, the absorbance at 570 nm was read by a plate reader (Infinite®200 Pro, Tecan). Cell survival rate was calculated as follows: […]
(§3) The IC50 (half maximal inhibitory concentration) was calculated using GraphPad Prism 8.

MIA PaCa2 cells = assay: MTT assay, MIA PaCa2 cells; assay type: cell-based, human; settings: MIA PaCa-2 cells
Description: as §1, §2, §3

ALDC1: albumin-drug conjugate: MMAE via mc-vc-pab linker on Cys34 of recombinant human serum albumin, drug to albumin ratio of 1
tumor growth compared to Abraxane+gemcitabine (subcutaneous KPC tumors): significant delay in tumor growth
conjugated MMAE released upon incubation with Cathepsin B (Cathepsin B): 94.73%
released MMAE when incubated without Cathepsin B (Cathepsin B): not detectable
body weight change [1]: minimal weight change
IC50 (in words), higher than free MMAE (PANC1 cells): μM toxicity
IC50 (in words), higher than free MMAE (MIA PaCa2 cells): μM toxicity

ALDC3: albumin-drug conjugate of MMAE drug-linker on TCEP-reduced recombinant serum albumin, drug to albumin ratio of 3
conjugated MMAE released upon incubation with Cathepsin B (Cathepsin B): 90.62%
released MMAE when incubated without Cathepsin B (Cathepsin B): not detectable
IC50 (in words), higher than free MMAE (PANC1 cells): μM toxicity
IC50 (in words), higher than free MMAE (MIA PaCa2 cells): μM toxicity
